Assay [1] addresses T1, recombinant human 5-HT6 receptor (Homo sapiens, UniProt P50406). The assay can be described thus: biochemical.
Assay [2] deals with T1, recombinant human 5-HT6 receptor. Particulars: for pKi: experimental value repeated in Table 5 beside docking scores (value of the tested compound, listed per docked stereoisomer); for decrease in affinity with pyridyl versus 2-methoxyphenyl group: compared with 4b, 4g, 4j.

By UniProt entry, the sequences of proteins in these tests, tags left out.
UniProt P50406, whole entry: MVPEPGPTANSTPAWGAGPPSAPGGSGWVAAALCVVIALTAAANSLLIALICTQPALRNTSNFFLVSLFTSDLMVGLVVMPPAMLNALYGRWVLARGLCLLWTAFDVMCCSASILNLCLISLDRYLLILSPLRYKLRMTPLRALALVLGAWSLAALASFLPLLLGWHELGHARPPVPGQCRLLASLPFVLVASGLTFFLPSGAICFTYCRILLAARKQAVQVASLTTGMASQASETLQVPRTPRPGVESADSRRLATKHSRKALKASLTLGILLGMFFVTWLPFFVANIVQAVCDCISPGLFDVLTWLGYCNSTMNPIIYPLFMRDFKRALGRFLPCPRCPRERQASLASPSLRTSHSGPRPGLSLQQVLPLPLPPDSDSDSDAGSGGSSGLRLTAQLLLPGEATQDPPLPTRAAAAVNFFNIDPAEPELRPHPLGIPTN

Molecules are shown by their SMILES.

In the case of `COc1ccc(S(=O)(=O)n2cc(C(=O)CN3CCOCC3)c3ccccc32)cc1` [Compound 3l, 1-(1-(4-Methoxyphenylsulfonyl)-1H-indol-3-yl)-2-morpholinoethanone], in assay [1], the inhibitory constant (Ki) (usually the equilibrium dissociation constant of an inhibitor or competing ligand from its target) is 447 nM. The negative logarithm of the Ki (pKi) (usually the Ki on a negative log10 scale, so that one unit is a factor of ten) in assay [2] is 6.35.

Consider `O=C(CN1CCOCC1)c1cn(S(=O)(=O)c2cc(F)cc(F)c2)c2ccccc12` [Compound 3m, 1-(1-(3,5-Difluorophenylsulfonyl)-1H-indol-3-yl)-2-morpholinoethanone], for which, in assay [1], the inhibitory constant (Ki) is 22400 nM. For the same compound, the negative logarithm of the Ki (pKi) in assay [2] came to 4.65.

Turning to `Cc1ccc(S(=O)(=O)n2cc(C(O)CN3CCN(c4ccccn4)CC3)c3ccccc32)cc1` (stereo not shown) [Compound 4a, 2-(4-(Pyridin-2-yl)piperazin-1-yl)-1-(1-tosyl-1H-indol-3-yl)ethanol], the Ki in assay [1] is 479 nM. The “decrease in affinity with pyridyl versus 2-methoxyphenyl group” value (shortened to “decrease in affinity”) in assay [2] is listed as 10–35 times.

Take `O=S(=O)(c1ccc(I)cc1)n1cc(C(O)CN2CCN(c3ccccn3)CC2)c2ccccc21` (stereo not shown) [Compound 4f, 1-(1-(4-Iodophenylsulfonyl)-1H-indol-3-yl)-2-(4-(pyridin-2-yl)piperazin-1-yl)ethanol]: the Ki in assay [1] was 372 nM. Moreover, the “decrease in affinity” value in assay [2] is 10–35 times.

`O=S(=O)(c1cccc2ccccc12)n1cc(C(O)CN2CCN(c3ccccn3)CC2)c2ccccc21` (stereo not shown) [Compound 4i, 1-(1-(Naphthalen-1-ylsulfonyl)-1H-indol-3-yl)-2-(4-(pyridin-2-yl)piperazin-1-yl)ethanol]: in assay [1], the Ki is 148 nM. In addition, in assay [2], the “decrease in affinity” value is on record as 10–35 times.

The record behind these values is publication PMC6273627, “Extended N-Arylsulfonylindoles as 5-HT6 Receptor Antagonists: Design, Synthesis & Biological Evaluation” (Molecules, 2016).
